# Test system: A549 epithelial cells
# Assay: LDH release
# Type: cell-based, human
substance,measurement,setting,value
Apolipoprotein A-1: obtained by delipidating HDL with 2:1 chloroform:methanol,effect on LDH release induced by 50 μg/ml LL-37,"A549, 10% FBS, 24 h, mean of two separate experiments",unable to block
same,effect on induction of cell death (LDH release) by LL-37,"A549, absence of serum, data not shown","but not apolipoprotein A-1, was able to reduce"

# From paper PMC2948534 (American journal of respiratory cell and molecular biology, 2005)
